The experiment has as its target Sodium-dependent serotonin transporter (Rattus norvegicus, UniProt P31652). Briefly: Inhibition of [3H]-5-HT binding to serotonin transporter of rat brain synaptosomes. The format is subcellular.

Amino acid sequences for entries named in this document (tags omitted).
UniProt P31652, whole entry: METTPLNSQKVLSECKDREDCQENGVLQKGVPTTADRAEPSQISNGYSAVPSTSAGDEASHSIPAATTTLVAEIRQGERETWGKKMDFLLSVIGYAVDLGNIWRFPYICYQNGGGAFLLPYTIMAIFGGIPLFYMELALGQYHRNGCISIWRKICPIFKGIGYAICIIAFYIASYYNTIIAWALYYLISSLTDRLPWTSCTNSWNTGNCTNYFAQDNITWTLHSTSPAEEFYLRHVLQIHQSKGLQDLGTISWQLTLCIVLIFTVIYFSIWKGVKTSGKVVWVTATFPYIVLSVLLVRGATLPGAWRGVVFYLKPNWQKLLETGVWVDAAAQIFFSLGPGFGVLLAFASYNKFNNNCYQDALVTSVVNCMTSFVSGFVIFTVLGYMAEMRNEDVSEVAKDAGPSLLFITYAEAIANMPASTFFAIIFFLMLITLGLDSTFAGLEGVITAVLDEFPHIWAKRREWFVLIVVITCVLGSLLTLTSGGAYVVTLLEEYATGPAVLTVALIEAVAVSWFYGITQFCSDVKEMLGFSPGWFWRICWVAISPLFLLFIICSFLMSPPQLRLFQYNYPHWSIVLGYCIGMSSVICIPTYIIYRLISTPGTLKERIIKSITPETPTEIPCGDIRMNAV

In general, Ki refers to a dissociation constant, usually derived from enzyme kinetics or from competition with a known ligand. High values mean weaker binding, low ones tighter binding.

On to `COC(=O)[C@H]1[C@@H](OC(=O)c2ccccc2)C[C@@H]2CC[C@H]1N2C` [COCAINE], for which the Ki is 413 nM.
